Protein sequences, listed by entry. Tags and fused reporters are not part of them.
UniProt P03372, whole entry: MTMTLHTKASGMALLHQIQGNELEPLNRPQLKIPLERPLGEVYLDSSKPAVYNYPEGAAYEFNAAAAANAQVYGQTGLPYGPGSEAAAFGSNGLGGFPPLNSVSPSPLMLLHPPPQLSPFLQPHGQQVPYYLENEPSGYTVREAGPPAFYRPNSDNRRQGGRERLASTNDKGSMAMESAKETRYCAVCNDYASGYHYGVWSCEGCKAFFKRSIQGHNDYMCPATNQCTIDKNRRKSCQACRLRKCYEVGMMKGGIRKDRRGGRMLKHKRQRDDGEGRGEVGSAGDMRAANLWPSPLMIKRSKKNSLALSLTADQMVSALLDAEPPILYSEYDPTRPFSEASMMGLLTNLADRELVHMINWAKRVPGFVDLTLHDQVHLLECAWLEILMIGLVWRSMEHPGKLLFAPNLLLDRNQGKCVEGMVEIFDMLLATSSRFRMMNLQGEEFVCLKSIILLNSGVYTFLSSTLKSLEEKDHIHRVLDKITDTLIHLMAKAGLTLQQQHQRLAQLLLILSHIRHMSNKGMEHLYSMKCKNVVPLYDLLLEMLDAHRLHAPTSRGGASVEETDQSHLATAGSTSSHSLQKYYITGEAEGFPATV

The target in this assay is Estrogen receptor (Homo sapiens) (UniProt P03372). In words: Relative Binding affinity to human ERalpha by competitive fluorometric binding assay relative to estradiol.
Regarding `CC1=CC(=O)[C@H]2/C(C=O)=C\C[C@H]3[C@@H]([C@@H](C)/C=C\C=C/C(=O)OCCOCCOCCOC(=O)CC45CC6CC(CC(C6)C4)C5)CC[C@]3(C)C[C@H]12`, the RBA was 0.59%. In the case of `CCCCCCOC(=O)/C=C\C=C/[C@H](C)[C@H]1CC[C@]2(C)C[C@@H]3C(C)=CC(=O)[C@H]3/C(C=O)=C\C[C@@H]12`, the RBA turned out to be 1.72%.

As to `CC(C)=C/C=C\[C@H](C)[C@H]1CC[C@]2(C)C[C@@H]3C(C)=CC(=O)[C@H]3/C(C=O)=C\C[C@@H]12`, the RBA is 0.22%.

These data come from ChEMBL document CHEMBL5042519, “Design and synthesis of marine sesterterpene analogues as novel estrogen receptor α degraders for breast cancer treatment” (Eur J Med Chem, 2022).
